Patent publication US8183228B2, “Anticoagulant antithrombotic dual inhibitors comprising a biotin label” (MSD OSS B.V. Netherlands, priority 2005, dated 2012)

Test system: human platelet rich plasma
Experiment: Inhibition of human platelet aggregation induced by ADP (PRP)
Format: cell-based
Conditions: read-out: IC50, human platelet aggregation induced by 5 μM ADP
Experimental: The final concentration is 0.38% sodium citrate.
The optical density (OD620) is then measured at 620 nm. […] This is to verify the stability of the platelets (absence of spontaneous platelet aggregation). […] Between two measurements, the plate is shaking for 40 seconds at 1,000 rpm. Each test compound is investigated in at least 2 experiments using PRP from different volunteers.
The mean OD at each compound concentration (including vehicle) is calculated at t=0 min and t=10 min. The percentage inhibition at each concentration is calculated using the formula: […]

In the case of `CCCCS(=O)(=O)N[C@@H](Cc1ccc(OCCCCC2CCNCC2)cc1)C(=O)O` [tirofiban, reference compound], the IC50 is reported as 30 to 60 nM.
